Binding of CDR-mutated scFvs to a peptide of the spike HR2 region

Binding partner: SARS-CoV-2 spike HR2 peptide, sequence PDVDLGDISGINAS.

Parent scFv Ab-95: VH joined to VL by three GGGGS repeats. Changes lie in the light chain CDRs alone.
VH: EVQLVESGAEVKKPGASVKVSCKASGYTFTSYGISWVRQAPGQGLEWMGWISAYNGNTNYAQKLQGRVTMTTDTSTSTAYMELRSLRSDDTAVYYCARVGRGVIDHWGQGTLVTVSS
VL: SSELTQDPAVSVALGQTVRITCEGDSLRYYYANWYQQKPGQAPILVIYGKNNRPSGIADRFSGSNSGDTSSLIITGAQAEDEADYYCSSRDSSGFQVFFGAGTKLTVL

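Variants in AAYL52 differ from the parent at up to three CDR positions; double and triple changes were sampled at random. Affinity was read by AlphaSeq, a pooled yeast mating assay with surface-displayed partners. Mating (16 h, 30 °C) was followed by selection of diploids and sequencing of their barcodes. Scores were corrected for input abundance and mapped to Kd with protein pairs of known affinity run in the same pool. Each pool was mated in three replicate cultures.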

Substitutions are numbered in sequence along the VL above, starting at 1 (not Kabat).
Scale: log10 of Kd in nM, estimated from mating counts; low values are strong binders.
A mean of the replicates is given; it leaves out those without a signal.
Where no diploid with the target was found in that replicate, the entry reads "nd": below detection, most likely a poor binder, though not proof of it.
Empty control strains, which show no peptide, gave a signal in 28% of pairings with library AAYL52; the median was 3.91 and 95% of these signals were weaker than 2.90. No background was subtracted. For each scFv, signals with the empty controls are counted beside the result.
Parent in this assay: reference entry 2.31, copy in this library 2.25.

Y31F+G49E+S92G: 4.12, 3.94, 3.51 (mean 3.86; controls 3 of 9).
G94L+Q96D+V97H: 5.60, 4.77, nd (mean 5.19; controls 3 of 9).
D25S+S26Y+S93G: 4.61, 3.26, 3.58 (mean 3.82; controls 3 of 9).
G24E+K50I+S88E: nd, 3.68, 3.71 (mean 3.70; controls 3 of 9).
S26I+K50N+S89H: 2.84, 4.51, nd (mean 3.68; controls 1 of 9).
S26T+S89H+D91Q: 3.50, 2.84, 2.49 (mean 2.94; controls 4 of 9).
D25H+S89L+G94S: 4.28, nd, nd (controls 1 of 9).
S26T+Y30L+G49W: nd, nd, nd (controls 0 of 9).
Y30H+N33P+R90E: nd, 4.06, nd (controls 1 of 9).
S55C+S88V+Q96R: 2.60, 2.70, 3.21 (mean 2.84; controls 2 of 9).
L27Q+Y31N+N33F: 3.21, nd, nd (controls 3 of 9).
R28M+N52I+S88K: nd, nd, nd (controls 1 of 9).
N33K+N52A+S88D: 4.12, 3.98, nd (mean 4.05; controls 2 of 9).
N33M+R53I+R90T: nd, 4.10, nd (controls 0 of 9).
G24S+A32W+G94N: 4.44, nd, nd (controls 1 of 9).
G24T+D91F+V97F: nd, nd, nd (controls 2 of 9).
S26D+G49I+S92V: nd, 4.06, nd (controls 0 of 9).
E23L+G49Y: nd, 3.52, nd (controls 3 of 9).
S89I+V97F: nd, 3.20, nd (controls 2 of 9).
D25K+R28E+V97E: nd, 3.72, nd (controls 3 of 9).
D25I+Y29F: 3.38, 2.89, nd (mean 3.13; controls 1 of 9).
A32C+K50H+N51P: 3.93, nd, nd (controls 4 of 9).
S26K+Y31C+R53G: 2.95, 2.91, nd (mean 2.93; controls 3 of 9).
K50I+S89E+S92E: nd, 4.04, 3.44 (mean 3.74; controls 4 of 9).
N51I+S89T+S93D: 3.95, nd, 3.18 (mean 3.57; controls 3 of 9).
Y30R+S88E+F98E: 3.86, 3.08, 2.59 (mean 3.17; controls 4 of 9).
E23D+S26N+Y30T: 2.24, 1.86, 3.01 (mean 2.37; controls 2 of 9).
Y30G+N52I+S55R: 1.22, 1.31, 0.96 (mean 1.16; controls 1 of 9).
R28S+G94S+F98Q: 3.93, 4.07, 4.08 (mean 4.02; controls 4 of 9).
N33A+N51L+P54T: 3.44, 3.34, 3.65 (mean 3.48; controls 4 of 9).
S26A+D91P+G94Q: 3.37, 3.41, 3.76 (mean 3.51; controls 2 of 9).
K50N+P54T+R90E: 3.09, 3.29, 3.41 (mean 3.27; controls 3 of 9).
D91V+Q96N: 4.76, nd, nd (controls 1 of 9).
Y30R+P54F+G94K: 2.87, 2.72, 3.95 (mean 3.18; controls 0 of 9).
Y31K+G49V+K50Y: 5.16, nd, nd (controls 2 of 9).
K50H+R53M+V97L: nd, 4.48, nd (controls 3 of 9).
L27Q+Y29C+P54Q: 3.69, nd, nd (controls 5 of 9).
G24D+G49F+F98K: 4.07, nd, nd (controls 2 of 9).
Y31L+G49E+Q96F: nd, 4.57, 3.65 (mean 4.11; controls 2 of 9).
L27Q+R53A+D91M: 5.60, nd, 4.46 (mean 5.03; controls 1 of 9).
Y29I+Y31A+G94K: 2.58, nd, nd (controls 0 of 9).
Y29P+S92K+S93V: nd, nd, nd (controls 2 of 9).
G49F+V97G: 5.00, 5.38, nd (mean 5.19; controls 4 of 9).
R53W+D91L+V97A: 4.39, nd, 3.28 (mean 3.84; controls 2 of 9).
Y29R+R53S+V97L: 3.70, 3.95, 4.61 (mean 4.09; controls 4 of 9).
G49C+S89F+Q96A: nd, nd, nd (controls 1 of 9).
D25W+S55A+Q96P: 3.22, nd, 3.41 (mean 3.32; controls 3 of 9).
E23S+K50C+R90P: 4.31, 2.36, 3.05 (mean 3.24; controls 2 of 9).

A selection of 4 entries from above:

The variant L27Q+R53A+D91M showed 5.60, nd, 4.46 (mean 5.03; controls 1 of 9).
The variant G49C+S89F+Q96A showed nd, nd, nd (controls 1 of 9).
The variant D25W+S55A+Q96P showed 3.22, nd, 3.41 (mean 3.32; controls 3 of 9).
The variant Y31L+G49E+Q96F showed nd, 4.57, 3.65 (mean 4.11; controls 2 of 9).

Reference: Engelhart et al. 2022, doi:10.1038/s41597-022-01779-4. File: FLAb, binding data.